Assay results reported in patent publication US20220002435A1 (IMMUNOME, published 2022).

Tests used:
[1] = target: T1, mouse EPN1 expressed by mouse cell lines (mouse, UniProt Q80VP1 1-575); test: flow cytometry, 4T1 cells (mouse tumor line)
T1 construct: whole, on cells; also called murine EPN1
T1 sequence (looked up): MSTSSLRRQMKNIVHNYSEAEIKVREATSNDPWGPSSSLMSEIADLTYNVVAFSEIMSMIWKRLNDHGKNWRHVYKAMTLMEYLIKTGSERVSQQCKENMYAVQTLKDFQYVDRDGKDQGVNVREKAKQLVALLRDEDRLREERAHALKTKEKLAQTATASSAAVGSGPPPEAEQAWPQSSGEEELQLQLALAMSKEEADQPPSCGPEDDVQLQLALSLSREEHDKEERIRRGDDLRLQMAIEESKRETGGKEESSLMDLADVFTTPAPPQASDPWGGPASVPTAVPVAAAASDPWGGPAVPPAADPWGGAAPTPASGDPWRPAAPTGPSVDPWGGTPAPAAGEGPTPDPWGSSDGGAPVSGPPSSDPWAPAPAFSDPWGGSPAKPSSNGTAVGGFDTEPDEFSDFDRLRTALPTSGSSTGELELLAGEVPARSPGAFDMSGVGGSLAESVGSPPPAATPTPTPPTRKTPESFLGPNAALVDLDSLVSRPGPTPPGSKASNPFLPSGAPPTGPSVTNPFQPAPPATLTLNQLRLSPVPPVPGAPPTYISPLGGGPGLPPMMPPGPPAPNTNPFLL

[2] = target: T2, human EPN1 expressed by human cell lines (human, UniProt Q9Y6I3 1-576); test: flow cytometry, ES2 cells (human tumor line)
T2 construct: Endogenous EPN1 of human tumour and normal cell lines, stained on live cells or on fixed and permeabilised cells, or immunoprecipitated; The cell lines were not engineered to express it; also called surface EPN1; huEPN1
T2 sequence: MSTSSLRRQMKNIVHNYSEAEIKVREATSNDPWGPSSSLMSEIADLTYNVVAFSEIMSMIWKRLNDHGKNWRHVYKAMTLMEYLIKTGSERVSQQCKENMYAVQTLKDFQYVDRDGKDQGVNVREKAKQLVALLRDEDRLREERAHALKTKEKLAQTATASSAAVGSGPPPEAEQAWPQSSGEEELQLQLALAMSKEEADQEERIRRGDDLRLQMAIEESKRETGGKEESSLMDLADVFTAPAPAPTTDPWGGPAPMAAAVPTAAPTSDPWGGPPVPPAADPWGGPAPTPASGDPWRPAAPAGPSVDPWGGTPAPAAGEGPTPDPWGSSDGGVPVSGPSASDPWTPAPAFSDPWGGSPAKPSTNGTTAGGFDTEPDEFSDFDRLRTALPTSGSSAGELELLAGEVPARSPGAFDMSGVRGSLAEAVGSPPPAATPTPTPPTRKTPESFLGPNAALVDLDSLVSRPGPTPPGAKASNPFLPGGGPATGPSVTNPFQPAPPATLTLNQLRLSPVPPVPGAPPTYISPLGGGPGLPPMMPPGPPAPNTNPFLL

[3] = target: T2, human EPN1 expressed by human cell lines; test: flow cytometry, RT4 cells (human tumor line)
[4] = target: T2, human EPN1 expressed by human cell lines; test: flow cytometry, A431 cells (human tumor line)
[5] = target: T2, human EPN1 expressed by human cell lines; test: flow cytometry, ACHN cells (human tumor line)
[6] = target: T2, human EPN1 expressed by human cell lines; test: flow cytometry, T47D cells (human tumor line)
[7] = target: T1, mouse EPN1 expressed by mouse cell lines; test: flow cytometry, CT-26 cells (mouse tumor line)
[8] = target: T2, human EPN1 expressed by human cell lines; test: flow cytometry, LNCAP cells (human tumor line)
[9] = target: T2, human EPN1 expressed by human cell lines; test: flow cytometry, NTERA cells (human tumor line)
[10] = target: T2, human EPN1 expressed by human cell lines; test: flow cytometry, HCT116 cells (human tumor line)
[11] = target: T2, human EPN1 expressed by human cell lines; test: flow cytometry, MDAMB231 cells (human tumor line)
[12] = target: T3, recombinant EPN1 (Origene, cat #TP307099) (human, UniProt Q9Y6I3 1-576); test: SPR, IMM20059 captured at about 50 RU on C1/Protein A, 25° C.
T3 construct: Bought protein; also called Epsin-1; Epsin 1
T3 sequence: T2 sequence
Experimental: (§1) Binding of EPN1 to IMM20059 was evaluated when antibody was captured, in standard running buffer, onto the surface of a C1/Protein A sensor chip at a density of approximately 50 RU. The combination of the carboxymethylated, matrix-free surface of the C1 chip and the low density of IMM20059 is predicted to limit avid binding.

[13] = target: T3, recombinant EPN1 (Origene, cat …); test: SPR, IMM20059 captured at 1000 RU on CM5/Protein A, EPN1 in solution, 25° C.
Experimental: IMM20059 was captured at four different surface densities (500, 1000, 2600, and 2800 RU) on a CM5/Protein A sensor chip using 10 mM HEPES, pH 7.4, 150 mM NaCl, 0.005% Tween-20, 0.2 mg/mL BSA as a running buffer. EPN1 (Origene Cat #TP307099) or EPN2 (Origene Cat #TP310899) were diluted in running buffer to both 200 nM and 20 nM and analyzed for the ability to bind to the immobilized IMM20059 at 25° C. […] However, as detailed in Table 4, the observed off-rates for binding to EPN1 were dependent upon IMM20059 surface density, with the off-rate on the 500 RU surface being 2.4-times faster than the off-rate measured on the 2800 RU density surface.

[14] = target: T3, recombinant EPN1 (Origene, cat …); test: SPR, IMM20059 captured at about 50 RU on C1/Protein A, EPN1 in solution, 25° C.
Experimental: as §1

B1: IMM20059 (antibody, human IgG1, kappa, V domains shown)
VH: EVQLVESGGGLVQPGGSLRLSCAASGFTFSIHSLNWVRQAPGKGLEWVSYISSNSTTIYYADSVKGRFTISRDNAKDSLYLQMNSLRDEDTAVYYCARDYYCTGGTCFFLPDLWGRGALVTVSS
VL: EIVLTQSPATLSLSPGERATLSCRASQNISNFLAWYQHKPGQAPRLLIYDASIRATGIPARFSGSGSGTDFSLTISSLEPEDFAVYFCQQRYNWLTFGGGTKVEIKR
In the case of B1, the “MFI (fold mean fluorescence index above isotype control)” value [1] is reported as 8 fold, the “MFI (fold mean fluorescence index above isotype control)” value [2] is reported as 9 fold and the “MFI (fold mean fluorescence index above isotype control)” value [3] is reported as 12 fold. The “MFI (fold mean fluorescence index above isotype control)” value [4] was 14 fold, the “MFI (fold mean fluorescence index above isotype control)” value [5] was 7 fold and the “MFI (fold mean fluorescence index above isotype control)” value [6] was 5 fold. The “MFI (fold mean fluorescence index above isotype control)” value [7] was 6 fold, the “MFI (fold mean fluorescence index above isotype control)” value [8] was 11 fold and the “MFI (fold mean fluorescence index above isotype control)” value [9] was 5 fold. The “MFI (fold mean fluorescence index above isotype control)” value [10] was 5 fold, the “MFI (fold mean fluorescence index above isotype control)” value [11] was 4 fold and the “fold decrease in measured intrinsic binding affinity (C1 chip against CM5 chip)” value [12] was about 10 fold. The Kd [13] was 1.52 nM, the koff [13] was 0.000454 s⁻¹ and the kon [13] was 298000 M⁻¹ s⁻¹. The Kd [14] was 10.1 nM, the koff [14] was 0.00303 s⁻¹ and the kon [14] was 299000 M⁻¹ s⁻¹.
